In PubChem BioAssay AID602179 (National Center for Advancing Translational Sciences (NCATS), 2012):
The entries are a selection whose mix differs from that of the whole data set. Some structures show a salt or complex split into parts, the way the source records it. Activity calls are given as the source filed them. The call rests on the fitted dose curve; in most records, active means well fitted inhibition curve with a large enough effect; inconclusive means small, poorly fitted or top-dose-only effect; inactive means no such curve, though single readings can be large or run the other way.

By UniProt entry, the sequences of proteins in these tests, tags left out.
UniProt O75874, whole entry R132H: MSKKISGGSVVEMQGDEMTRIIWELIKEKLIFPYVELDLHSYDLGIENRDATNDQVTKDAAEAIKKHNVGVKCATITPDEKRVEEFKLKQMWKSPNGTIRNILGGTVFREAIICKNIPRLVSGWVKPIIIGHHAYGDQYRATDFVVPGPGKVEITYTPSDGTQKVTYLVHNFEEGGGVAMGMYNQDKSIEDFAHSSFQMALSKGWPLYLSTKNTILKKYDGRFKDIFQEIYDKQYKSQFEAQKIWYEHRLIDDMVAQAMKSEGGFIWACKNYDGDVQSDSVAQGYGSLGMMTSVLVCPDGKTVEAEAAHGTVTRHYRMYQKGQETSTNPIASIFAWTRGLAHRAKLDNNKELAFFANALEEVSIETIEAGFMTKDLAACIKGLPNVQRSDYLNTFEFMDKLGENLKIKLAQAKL

target: Isocitrate dehydrogenase [NADP] cytoplasmic (Homo sapiens) (UniProt O75874); assay: qHTS for Inhibitors of mutant isocitrate dehydrogenase 1 (IDH1): qHTS; conditions: IDH1-R132H enzyme, NADPH consumption, diaphorase/resazurin fluorescence; at 76.6 µM (top of the series); further: nearly all actives have a fitted effect of over 65% in size
Excerpt: Unbiased genomic sequencing for 22 glioma genomes found recurrent mutation of isocitrate dehydrogenase 1 (IDH1) on chromosome 2q33-a gene encoding the cytosolic isoform of IIDH1associated with the tricarboxylic acid cycle (TCA) that catalyzes the oxidative decarboxylation of isocitrate, yielding alpha-ketoglutarate and CO2 via NADP+ to NADPH conversion. Subsequent studies confirmed the recurrent IDH mutations in up to 70% of secondary gliomas and in 10% of AML cases. […] This in effect defines IDH1 as an oncogene, and provides an extraordinary opportunity to discover chemical probes against mutant IDH1 that may translate into much needed new therapies for glioma and AML patients. […] NIH Chemical Genomics Center [NCGC] NIH Molecular Libraries Probe Centers Network [MLPCN] MLPCN Grant: DA032129 Assay Submitter (PI): Lenny Dang, Agios Pharmaceuticals
IDH1-R132H (0.5 ug/mL) was dispensed into black, solid-bottom 1536-well plates at 3 uL/well in 20 mM Tris-HCl (pH 7.5), 150 mM NaCl, 10 mM MgCl2, 4 mM beta-ME, and 0.05% protease-free BSA. Then, 23 nL of compounds or DMSO were delivered to each well using a pin tool. A pre-read was run on the Viewlux to identify fluorescent compounds (540 nm excitation filter, 598 nm emission filter, bodipy mirror and 2 second exposure). After 30 minutes of incubation with compound, 3 uL of substrate mix were dispensed (0.016 mM NADPH, 2 mM alpha-KG, 20 mM Tris-HCl (pH 7.5), 150 mM NaCl, 10 mM MgCl2, and 0.05% protease-free BSA). Plates were spun for 1 min at 1000xg and incubated at room temperature for 80 min. Then 1.5 uL of each detection reagent component for the coupling system were added (0.12 mg/mL diaphorase and 0.072 mM resazurin, each in 20 mM Tris-HCl (pH 7.5), 150 mM NaCl, 10 mM MgCl2, and 0.05% protease-free BSA ) The protein, substrate and two detection components were maintained at 4 °C throughout the screen. Additionally, the substrate and resazurin reagents were protected from light. The plates were measured on an Envision plate reader for fluorescence signal using a 540 nm excitation filter and 590 nm emission filter with 10 flashes. 1x and 0x (no-enzyme) IDH1-R132H enzyme control were used to normalize %Activity of identified inhibitors; 0x enzyme values corresponded to 100% Activity (full inhibition), while 1x IDH1-R132H enzyme values were used to normalize 0%Activity (no inhibition). Concentration-response curves were fitted to the signals arising from the resulting fluorescence. The concentration-effect curves were then classified based on curve quality (r2), response magnitude and degree of measured activity, and compounds were subsequently categorized based on their curve class. […] Keywords: isocitrate dehydrogenase, IDH1, IDH1-R132H, MLSMR, MLPCN, NIH Roadmap, qHTS, NCGC
On the % scale 0 is the no-effect control and ±100 the full control effect.

SMILES | activity change, negative = inhibition
CCCCOc1ccc(C(=O)NCC2(N3CCOCC3)CCCCC2)cc1 | inactive: 4.85%
COc1ccc(NC2CCN(CCc3ccccc3)CC2)c(OC)c1 | inactive: 10.3%
CCOC(=O)N1CCC(Nc2ccc(F)cc2)CC1 | inactive: -10.6%
COc1ccccc1C(=O)NCC1(N2CCOCC2)CCCCC1 | inactive: -3.66%
O=C(NCC1(N2CCOCC2)CCCCC1)c1cc2ccccc2o1 | inactive: 4.11%
O=C(NCC1(N2CCCCC2)CCCCC1)c1ccc(Cl)nc1 | inactive: -1.12%
Cc1cc(C)cc(N(C(=O)c2ccccc2)C2CCN(C(=O)OC(C)(C)C)CC2)c1 | inactive: -2.53%
CCOC(=O)N1CCC(Nc2ccc(OC)cc2)CC1 | inactive: 3.67%
O=C(OC1CN2CCC1CC2)C1c2ccccc2Oc2ccccc21 (centres undefined) | inactive: 7.6%
O=C(NCC1(N2CCCCC2)CCCCC1)c1ccc(Cl)s1 | inactive: 6.63%
N#CC1(Nc2ccccc2)CCN(Cc2ccccc2)CC1 | inactive: -3.64%
O=C1C(O)=C([N+](=O)[O-])C(=O)C(O)=C1[N+](=O)[O-] | inactive: -9.15%
COc1ccc(Cl)cc1C(=O)NCC1(N2CCOCC2)CCCCC1 | inactive: 10.6%
O=C(NCC1(N2CCCCC2)CCCCC1)c1ccc(=O)[nH]c1 | inactive: 0%
O=C(NCC1(N2CCCCC2)CCCCC1)c1cccs1 | inactive: 3.32%
COc1ccc(C(=O)NCC2(N3CCCCC3)CCCCC2)cc1 | inactive: -2.83%
COc1ccc(C(=O)NCC2(N3CCCCC3)CCCCC2)c(OC)c1OC | inactive: -11.1%
CC(C)(C)OC(=O)N1CCC(N(C(=O)c2ccccc2)c2ccc(F)cc2)CC1 | inactive: -5.64%
CSc1ccccc1C(=O)NCC1(N2CCCCC2)CCCCC1 | inactive: -8.95%
Cc1cccc(NC2(C#N)CCN(Cc3ccccc3)CC2)c1 | inactive: 3.32%
O=C(NCC1(N2CCCCC2)CCCCC1)c1cncc(Br)c1 | inactive: 0.216%
COc1ccc2c(c1O)-c1c(O)c(OC)cc3c1[C@H](C2)[N+](C)(C)CC3.O=[N+]([O-])c1cc([N+](=O)[O-])c([O-])c([N+](=O)[O-])c1[O-] | inactive: 15.2%
CN1CCC(Nc2cccc(F)c2)CC1 | inactive: 4.2%
O=C(OC1CN2CCC1CC2)c1ccc([N+](=O)[O-])cc1 (centres undefined) | inactive: -1.71%
Cc1ccc(C(=O)NCC2(N(C)C)CCCCC2)o1 | inactive: 8.02%

SMILES | activity change, negative = inhibition
CCCCOc1ccccc1C(=O)NCC1(N2CCOCC2)CCCCC1 | inactive: -0.775%
CCCOc1ccc(C(=O)NCC2(N(C)C)CCCCC2)cc1OC | inactive: 3.82%
O=C(NCC1(N2CCOCC2)CCCCC1)c1ccccc1Br | inactive: 21.3%
O=[N+]([O-])c1cc([N+](=O)[O-])c(Nc2ccc(Cl)cc2)c([N+](=O)[O-])c1 | inactive: 9.77%
COc1ccc(CN(CCCl)CCCl)cc1Cl | inactive: -7.43%
O=[N+]([O-])c1cc([N+](=O)[O-])c(OC2CCCCC2O)c([N+](=O)[O-])c1 (centres undefined) | inactive: -0.665%
CN(C)c1cccc(C(=O)NCC2(N3CCCCC3)CCCCC2)c1 | inactive: 6.58%
CC(C)c1ccc(NC2CCN(C(=O)OC(C)(C)C)CC2)cc1 | inactive: 8.76%
COc1cc(OC)c(C(=O)NCC2(N(C)C)CCCCC2)cc1OC | inactive: -10.7%
O=C(NCC1(N2CCOCC2)CCCCC1)c1cc(F)c(F)cc1Cl | inactive: -1.79%
CCCOc1cccc(C(=O)NCC2(N3CCOCC3)CCCCC2)c1 | inactive: 9.74%
O=C(NCC1(N2CCCCC2)CCCCC1)c1cccc(C(F)(F)F)c1 | inactive: 0%
O=[N+]([O-])c1cc([N+](=O)[O-])c(NCC2CCS(=O)(=O)C2)c([N+](=O)[O-])c1 (centres undefined) | inactive: 11.7%
CN1CCN(CCOC(=O)C(O)(c2ccccc2)c2ccccc2)CC1 | inactive: -1.86%
COc1ccc(NC2CCN(C(=O)OC(C)(C)C)CC2)cc1 | inactive: -0.268%
CC(C)c1ccc(C(=O)NCC2(N3CCOCC3)CCCCC2)cc1 | inactive: 9.87%
COc1cc(C(=O)NCC2(N3CCCCC3)CCCCC2)ccc1OC(F)F | inactive: 2.55%
O=C(NCC1(N2CCOCC2)CCCCC1)c1cc(=O)[nH]c2ccccc12 | inactive: 0.83%
O=C(NCC1(N2CCCCC2)CCCCC1)c1ccc(OC(F)F)cc1 | inactive: -2.23%
CCOc1ccc(C(=O)NCC2(N3CCOCC3)CCCCC2)cc1 | inactive: -0.544%
O=C(NCC1(N2CCCCC2)CCCCC1)c1cccc([N+](=O)[O-])c1 | inactive: 6.03%
CSc1ccc(C(=O)NCC2(N3CCOCC3)CCCCC2)cc1 | inactive: 7.35%
CCN1CCC(Nc2ccc(Cl)cc2)CC1 | inactive: -4.84%
N#CC1(Nc2ccccc2)CCN(CCc2ccccc2)CC1 | inactive: 0.263%
